This passage reports EC50 results from patent publication US7223533B2, “Cell surface proteins and use thereof as indicators of activation of cellular signal transduction pathways” (priority 1999, dated 2007).

The assay has as its target T1, Ste2 receptor (Saccharomyces cerevisiae, UniProt D6VTK4).
T1 construct: Yeast cells coexpressing either the endogenous yeast receptor Ste2p; endogenous in cells; host or cells: S. cerevisiae MATa cells (strain CY1892 in the Sag1p-based ELISA)
T1 sequence (D6VTK4 1-431): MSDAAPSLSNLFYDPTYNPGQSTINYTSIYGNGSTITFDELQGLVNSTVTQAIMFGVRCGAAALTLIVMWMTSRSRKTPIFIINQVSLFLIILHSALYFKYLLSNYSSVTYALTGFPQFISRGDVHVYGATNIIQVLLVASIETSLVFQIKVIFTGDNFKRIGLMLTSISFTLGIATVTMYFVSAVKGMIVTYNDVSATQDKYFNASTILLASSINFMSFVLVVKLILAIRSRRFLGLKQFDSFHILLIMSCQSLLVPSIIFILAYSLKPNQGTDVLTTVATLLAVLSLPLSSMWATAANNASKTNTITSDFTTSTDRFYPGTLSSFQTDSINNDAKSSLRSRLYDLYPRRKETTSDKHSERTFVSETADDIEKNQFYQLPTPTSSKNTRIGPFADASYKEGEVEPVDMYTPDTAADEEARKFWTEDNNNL
As to the kind of experiment: ELISA-like assay of endogenous Aga2 protein with Sag1p21-352, anti-Xpress antibodies and HRP conjugate. In kind it is cell-based, S. cerevisiae. Conditions: read-out: EC50 of induction of the Aga2 protein; strain CY1892, Sag1p21-352 / anti-Xpress / HRP detection. How it is done: Extraction of the endogenous Aga2 protein was effected with DTT, as before. Aliquots (25 microliters) of extracts were diluted with 75 microliters of 100 mM sodium bicarbonate, pH 9.5 and the resulting samples were incubated in 96-well polystyrene plates at 4° C. overnight.
After washing the plates three times with PBS, pH 6.5, supplemented with 0.1% Tween 20, samples were blocked with the same buffer containing 3% bovine serum albumin at 37° C. for 1 hour. After blocking, the plates were incubated subsequently with EndoH-treated Sag1p^21-352 solution (0.5 mg/ml), 1000-fold diluted anti-Xpress antibodies (Invitrogen) and 5000-fold diluted sheep anti-mouse IgG conjugated with horseradish peroxidase (Amersham Pharmacia Biotech). Both Sag1p^21-352 and antibodies were dissolved in PBS, pH 6.5 supplemented with 3% BSA. Each incubation was conducted at room temperature for 1 hr and was followed by three washes with PBS, pH 6.5, 0.1% Tween 20. Finally, the peroxidase activities in each well were determined using tetramethyl benzidine as a substrate. If the Aga2 protein were present in the plate, the Sag1p^21-352 should bind to it, the anti-Xpress antibody binds to the Sag1p^21-352 fusion protein, and the sheep anti-mouse IgG antibodies bind specifically to the anti-Xpress antibody.

For α-factor, the concentration giving a half-maximal response (EC50) stood at 37 nM.
